By Kd is commonly meant the concentration at which binding is half-saturated. High values mean a looser complex, low ones a tighter complex.

The target in this experiment is Bfl-1 (c-myc-tagged, without the C-terminal trans-membrane region) (human). Briefly: fluorescence polarisation. (In general: Fluorescence polarisation rises when a labelled molecule tumbles more slowly, as on binding a larger partner.)

In turn, “Bim_A2eT_E2gG, N-terminal fluorescein (peptide)” showed a Kd of 250 nM.

(Values after article PMC4168798.)
